Reference: ChEMBL document CHEMBL1139188, “Identification of diamino chromone-2-carboxamides as MCHr1 antagonists with minimal hERG channel activity” (Bioorg Med Chem Lett, 2007)

Sequences of proteins named here, by UniProt entry; tags and fusion partners are left off. A change or cut given only in a name is not applied to a line headed by its entry.
UniProt Q99705: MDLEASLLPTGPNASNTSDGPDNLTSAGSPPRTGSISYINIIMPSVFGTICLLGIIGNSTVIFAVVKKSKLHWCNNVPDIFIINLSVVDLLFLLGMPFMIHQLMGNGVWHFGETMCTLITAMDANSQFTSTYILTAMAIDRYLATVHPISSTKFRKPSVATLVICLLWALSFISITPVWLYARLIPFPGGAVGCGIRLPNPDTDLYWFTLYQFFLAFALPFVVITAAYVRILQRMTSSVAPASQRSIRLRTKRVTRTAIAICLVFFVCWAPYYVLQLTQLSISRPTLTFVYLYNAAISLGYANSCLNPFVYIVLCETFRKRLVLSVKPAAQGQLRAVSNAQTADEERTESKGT

Columns and labels:
[1] = target: T1, Melanin-concentrating hormone receptor 1 (Homo sapiens, UniProt Q99705); test: Displacement of [125I]MCH from MCHR1 expressed in IMR32 cells; type: cell-based, IMR-32
[2] = target: T1, Melanin-concentrating hormone receptor 1; test: Antagonist activity at MCHR1 assessed as inhibition of MCH-mediated calcium release in IMR32 cells; type: functional, cell-based, IMR-32

Question: `O=C(NC1CCN(Cc2ccc(OCCN3CCCC3)c(F)c2)CC1)c1cc(=O)c2ccc(F)cc2o1` was tested. Which IC50 [1] did it give?
Answer: The IC50 was 1520 nM.

Question: What about the IC50 [2] of the same compound?
Answer: The IC50 was over 10000 nM.

Question: Which IC50 [1] does the source give for `O=C(NC1CCN(Cc2ccc(OCCCN3CCCCC3)c(F)c2)CC1)c1cc(=O)c2ccc(F)cc2o1` here?
Answer: Its IC50 is 3 nM.

Question: And the IC50 [2]?
Answer: The IC50 was 86 nM.

Question: With `COC(C)(C)CCOc1ccc(CN2CCC(NC(=O)c3cc(=O)c4ccc(F)cc4o3)CC2)cc1` as the compound, how does the IC50 [1] read?
Answer: Its IC50 is 165 nM.

Question: What about the IC50 [2] of the same compound?
Answer: The IC50 was 1750 nM.

Question: With `O=C(CCN1CCCCC1)Nc1ccc(CN2CCC(NC(=O)c3cc(=O)c4ccc(F)cc4o3)CC2)cc1F` as the compound, how does the IC50 [1] read?
Answer: Its IC50 is 23 nM.

Question: And the IC50 [2]?
Answer: The IC50 was 120 nM.

Question: What does the source list for `O=C(NCCN1CCCC1)c1ccc(CN2CCC(NC(=O)c3cc(=O)c4ccc(F)cc4o3)CC2)c(Cl)c1`?
Answer: IC50 [1]: 2 nM; IC50 [2]: 136 nM

Question: Which results are given for `CC(C)CO/N=C/COc1ccc(CN2CCC(NC(=O)c3cc(=O)c4ccc(F)cc4o3)CC2)cc1F`?
Answer: IC50 [1]: 15 nM; IC50 [2]: 1980 nM

Question: For `O=C(NC1CCN(Cc2ccc(C(=O)NCCN3CCCC3)c(F)c2)CC1)c1cc(=O)c2ccc(F)cc2o1`, which IC50 [1] is on record?
Answer: Its IC50 is 29 nM.

Question: And the IC50 [2]?
Answer: Its IC50 is 420 nM.

Question: `O=C(NCCN1CCC(F)(F)CC1)c1ccc(CN2CCC(NC(=O)c3cc(=O)c4ccc(F)cc4o3)CC2)cc1` was tested. Which IC50 [1] did it give?
Answer: The IC50 was 86 nM.

Question: What about the IC50 [2] of the same compound?
Answer: The IC50 was 2930 nM.

Question: How did the IC50 [1] turn out when `COc1cc(C(=O)NCCN2CCCC2)ccc1CN1CCC(NC(=O)c2cc(=O)c3ccc(F)cc3o2)CC1` was run?
Answer: Its IC50 is 26 nM.

Question: What about the IC50 [2] of the same compound?
Answer: Its IC50 is 270 nM.

Question: Which results are given for `CO/N=C/COc1ccc(CN2CCC(NC(=O)c3cc(=O)c4ccc(F)cc4o3)CC2)cc1F`?
Answer: IC50 [1]: 31 nM; IC50 [2]: 480 nM

Question: How did the IC50 [1] turn out when `O=C(NC1CCN(Cc2ccc(OCC(F)(F)F)c(F)c2)CC1)c1cc(=O)c2ccc(F)cc2o1` was run?
Answer: The IC50 was 64 nM.

Question: With `O=C(NC1CCN(Cc2ccc(OCCCN3C(=O)CSC3=O)c(F)c2)CC1)c1cc(=O)c2ccc(F)cc2o1` as the compound, how does the IC50 [1] read?
Answer: The IC50 was 4 nM.

Question: And the IC50 [2]?
Answer: The IC50 was 545 nM.

Question: With `O=C(NC1CCN(Cc2ccc(OCCN3CCOCC3)c(F)c2)CC1)c1cc(=O)c2ccc(F)cc2o1` as the compound, how does the IC50 [1] read?
Answer: The IC50 was over 2000 nM.
